Results from article PMC8064294 (Journal of medicinal chemistry, 2020).

Molecular target: T1, ULK1 (NanoLuc-ULK1 fusion) (Homo sapiens, UniProt O75385)
T1 sequence (O75385 1-1050): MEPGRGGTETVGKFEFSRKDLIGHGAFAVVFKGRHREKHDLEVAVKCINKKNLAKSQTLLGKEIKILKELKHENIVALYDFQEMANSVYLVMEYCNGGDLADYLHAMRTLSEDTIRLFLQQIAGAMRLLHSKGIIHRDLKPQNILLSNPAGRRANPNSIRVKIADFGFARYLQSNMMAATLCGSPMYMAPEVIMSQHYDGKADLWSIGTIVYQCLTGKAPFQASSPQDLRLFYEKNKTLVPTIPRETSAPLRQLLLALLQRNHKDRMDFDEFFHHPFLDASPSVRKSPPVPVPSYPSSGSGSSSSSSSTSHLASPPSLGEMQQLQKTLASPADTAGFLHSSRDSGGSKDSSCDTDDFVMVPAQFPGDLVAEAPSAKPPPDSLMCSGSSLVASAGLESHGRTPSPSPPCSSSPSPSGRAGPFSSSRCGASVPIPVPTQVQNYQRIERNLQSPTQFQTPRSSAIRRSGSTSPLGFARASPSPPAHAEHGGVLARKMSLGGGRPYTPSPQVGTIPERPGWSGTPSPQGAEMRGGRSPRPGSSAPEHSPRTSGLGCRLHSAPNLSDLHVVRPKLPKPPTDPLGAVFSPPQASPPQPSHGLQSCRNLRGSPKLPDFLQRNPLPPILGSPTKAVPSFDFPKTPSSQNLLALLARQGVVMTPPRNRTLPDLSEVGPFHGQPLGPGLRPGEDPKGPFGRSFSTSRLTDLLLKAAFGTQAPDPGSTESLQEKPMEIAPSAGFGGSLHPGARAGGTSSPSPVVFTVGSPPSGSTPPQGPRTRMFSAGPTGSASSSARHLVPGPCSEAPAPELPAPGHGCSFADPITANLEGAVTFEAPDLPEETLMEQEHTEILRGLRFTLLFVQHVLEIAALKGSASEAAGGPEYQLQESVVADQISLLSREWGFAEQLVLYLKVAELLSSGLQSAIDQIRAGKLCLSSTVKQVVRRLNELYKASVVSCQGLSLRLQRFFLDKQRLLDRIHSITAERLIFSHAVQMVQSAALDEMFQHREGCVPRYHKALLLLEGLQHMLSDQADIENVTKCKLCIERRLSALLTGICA
Test: ULK1 NanoBRET intracellular kinase target engagement assay in HEK293T cells
Type: cell-based
Conditions: HEK293T live cells

- ULK1 NanoBRET IC50 (range in words): sub-micromolar range
SMILES: FC(F)(F)c1cnc(Nc2ccc3nc[nH]c3c2)nc1NC1CC1 [compound 7, N^2-(1H-Benzo[d]imidazol-6-yl)-N^4-cyclopropyl-5-(trifluoromethyl)pyrimidine-2,4-diamine]
